These results are taken from US20100273193A1.

This is a selection: effects in other tests are not listed, and their absence says nothing.

For series [1] the following is noted: at room temperature; cited from earlier work.
The subject of series [2] is mouse serum (TATP antibodies). The experiment in a line: direct ELISA with mouse serum and TATP-peroxidase tracer (TATP calibration curve). Background: In an ELISA, binding on a coated surface is turned into a signal by an enzyme label.
Series [3] concerns mouse serum (TATP antibodies). In words: indirect ELISA with mouse serum and anti-mouse peroxidase tracer (TATP calibration curve).
The subject of series [4] is rabbit serum (TATP antibodies). In words: direct ELISA with rabbit serum and TATP-peroxidase tracer (TATP calibration curve).
The test system of series [5] is rabbit serum (TATP antibodies). In words: indirect ELISA with rabbit serum (TATP calibration curve).

For the compound `CC1(C)OOC(C)(C)OOC(C)(C)OO1`, the vapor pressure result in series [1] is recorded as “about 7 Pa”. Further, the point of inflexion in series [2] (1:10,000 diluted mouse serum, 1:10,000 diluted TATP-peroxidase tracer, FIG. 3 curve a) was determined as 2.5 mg/L; in series [3] (1:10,000 diluted mouse serum, 1:5,000 diluted anti-mouse peroxidase tracer, FIG. 3 curve b), 5.6 mg/L; in series [4] (1:120,000 diluted rabbit serum, 1:30,000 diluted TATP-peroxidase tracer, FIG. 4 curve a), 1.6 µg/L; in series [5] (1:120,000 diluted rabbit serum, 1:30,000 diluted TATP-peroxidase tracer, FIG. 4 curve b), 0.98 µg/L. Further, the Kd in series [2] (read-out: mean antibody affinity, 1:10,000 diluted mouse serum, FIG. 3 curve a) was 5700 nM; in series [3] (read-out: mean antibody affinity, 1:10,000 diluted mouse serum, FIG. 3 curve b), 13000 nM; in series [4] (read-out: mean antibody affinity, 1:120,000 diluted rabbit serum, FIG. 4 curve a) it was 5.7 nM; in series [5] (read-out: mean antibody affinity, 1:120,000 diluted rabbit serum, FIG. 4 curve b), 3.5 nM.
